{
  "sequences": {"note": "Amino acid sequences for entries named in this document (tags omitted).", "UniProt Q00975, whole entry": "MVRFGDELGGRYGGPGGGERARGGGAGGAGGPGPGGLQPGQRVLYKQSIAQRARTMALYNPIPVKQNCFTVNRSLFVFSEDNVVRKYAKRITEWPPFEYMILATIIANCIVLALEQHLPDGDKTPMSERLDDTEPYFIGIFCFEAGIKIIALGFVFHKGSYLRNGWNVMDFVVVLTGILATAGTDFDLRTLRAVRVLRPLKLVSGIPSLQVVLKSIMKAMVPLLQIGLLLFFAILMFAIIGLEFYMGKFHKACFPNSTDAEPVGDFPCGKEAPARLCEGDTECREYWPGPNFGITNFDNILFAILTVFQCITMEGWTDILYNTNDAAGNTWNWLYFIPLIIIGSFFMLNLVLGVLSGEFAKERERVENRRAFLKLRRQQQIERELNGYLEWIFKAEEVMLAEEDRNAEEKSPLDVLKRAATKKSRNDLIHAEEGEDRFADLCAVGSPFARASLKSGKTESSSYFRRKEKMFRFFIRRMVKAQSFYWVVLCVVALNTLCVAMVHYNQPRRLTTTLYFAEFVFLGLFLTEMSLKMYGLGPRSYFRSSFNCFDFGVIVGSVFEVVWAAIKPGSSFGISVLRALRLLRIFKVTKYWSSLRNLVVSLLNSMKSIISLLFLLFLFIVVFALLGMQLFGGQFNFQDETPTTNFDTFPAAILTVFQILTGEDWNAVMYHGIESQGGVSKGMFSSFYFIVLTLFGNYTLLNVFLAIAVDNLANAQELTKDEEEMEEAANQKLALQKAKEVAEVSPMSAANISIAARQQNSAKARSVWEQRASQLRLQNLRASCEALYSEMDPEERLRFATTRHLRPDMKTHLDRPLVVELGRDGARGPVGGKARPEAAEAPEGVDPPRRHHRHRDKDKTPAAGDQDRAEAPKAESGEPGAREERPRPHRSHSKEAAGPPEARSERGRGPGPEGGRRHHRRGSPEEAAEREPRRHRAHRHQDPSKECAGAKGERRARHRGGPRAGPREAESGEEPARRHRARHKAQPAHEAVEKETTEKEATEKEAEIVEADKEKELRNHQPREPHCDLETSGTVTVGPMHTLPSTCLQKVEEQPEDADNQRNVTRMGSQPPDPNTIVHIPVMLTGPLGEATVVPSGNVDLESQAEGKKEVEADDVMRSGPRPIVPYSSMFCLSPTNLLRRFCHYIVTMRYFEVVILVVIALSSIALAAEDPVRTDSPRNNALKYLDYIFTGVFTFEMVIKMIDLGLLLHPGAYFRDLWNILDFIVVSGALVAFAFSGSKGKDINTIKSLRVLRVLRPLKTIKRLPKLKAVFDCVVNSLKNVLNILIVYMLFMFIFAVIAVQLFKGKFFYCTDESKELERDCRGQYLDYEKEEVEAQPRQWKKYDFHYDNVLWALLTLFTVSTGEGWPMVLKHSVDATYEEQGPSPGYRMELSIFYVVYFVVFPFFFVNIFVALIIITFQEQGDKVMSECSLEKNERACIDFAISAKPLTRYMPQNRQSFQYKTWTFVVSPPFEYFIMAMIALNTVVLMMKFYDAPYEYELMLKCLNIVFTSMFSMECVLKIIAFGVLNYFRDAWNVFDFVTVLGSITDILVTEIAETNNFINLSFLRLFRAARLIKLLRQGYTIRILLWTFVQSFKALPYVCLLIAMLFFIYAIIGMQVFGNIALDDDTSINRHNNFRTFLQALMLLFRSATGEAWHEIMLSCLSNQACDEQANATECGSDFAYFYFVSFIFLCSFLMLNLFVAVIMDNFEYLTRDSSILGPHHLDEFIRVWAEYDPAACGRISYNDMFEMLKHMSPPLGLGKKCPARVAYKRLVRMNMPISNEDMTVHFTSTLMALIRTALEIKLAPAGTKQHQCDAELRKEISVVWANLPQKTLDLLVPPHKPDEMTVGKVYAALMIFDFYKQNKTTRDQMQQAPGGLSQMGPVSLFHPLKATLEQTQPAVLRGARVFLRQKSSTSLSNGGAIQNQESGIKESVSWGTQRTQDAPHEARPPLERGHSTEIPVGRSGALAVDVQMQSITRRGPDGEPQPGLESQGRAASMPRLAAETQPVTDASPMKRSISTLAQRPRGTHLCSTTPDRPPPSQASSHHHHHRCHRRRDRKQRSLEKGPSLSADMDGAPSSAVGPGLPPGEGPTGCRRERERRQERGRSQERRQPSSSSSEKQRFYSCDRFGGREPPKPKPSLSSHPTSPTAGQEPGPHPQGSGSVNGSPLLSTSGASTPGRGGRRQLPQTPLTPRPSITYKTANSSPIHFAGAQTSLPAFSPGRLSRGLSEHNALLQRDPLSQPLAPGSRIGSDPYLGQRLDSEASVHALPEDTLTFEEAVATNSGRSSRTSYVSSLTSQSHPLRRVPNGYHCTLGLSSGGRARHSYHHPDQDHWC"},
  "source": "patent US8129417B2",
  "about": "“Substituted octahydrocyclopenta[C]pyrrol-4-amines as calcium channel blockers” (Abbott Laboratories, priority 2008, dated 2012)",
  "biological_target": "human Cav2.2 (Homo sapiens, UniProt Q00975)",
  "assay": "Assessment of calcium channel activity using FLIPR (Ca2+ influx in IMR32 cells)",
  "assay_type": "cell-based",
  "protocol": "(i) In Vitro Methods—Assessment of Calcium Channel Activity Using FLIPR:\nThe IMR32 cells were maintained in MEM media containing 10% (v/v) FBS, 1% (v/v) antibiotic/antimitotic, 1% (v/v) sodium pyruvate and 1% (v/v) MEM NEAA. Following dissociation in 0.05% (v/v) trypsin/EDTA, cells were seeded into black 1×96-well plates (Corning Cellbind) at a density of 1-1.2×10^5 cells/well and incubated in the maintenance media above for 48 hours at 37° C. […] To determine the IC50 values, the percent inhibition of the compound at each concentration was determined relative to the activity in the absence of inhibitor, and data was fitted using non-linear regression sigmoidal dose response curve analysis with GraphPad Prism®.",
  "data": [
    {"smiles": "CC(C)N[C@@H](CC(C)(C)C)C(=O)N[C@H]1CC[C@@H]2CN(S(=O)(=O)c3ccc(C(F)(F)F)cc3)C[C@@H]21", "note": "[Example 480, N^2-isopropyl-4-methyl-N^1-((3aR,4S,6aS)-2-{[4-(trifluoromethyl)phenyl]sulfonyl}octahydrocyclopenta[c]pyrrol-4-yl)-L-leucinamide]", "values": [
      {"measurement": "IC50", "value": 1310, "unit": "nM"}
    ]}
  ]
}
